ChEMBL document CHEMBL1125471, “Isopropyl and phenyl esters of 3 beta-(4-substituted phenyl)tropan-2 beta-carboxylic acids. Potent and selective compounds for the dopamine transporter” (J Med Chem, 1992)

The chains behind the UniProt entries cited, without tags or fusion partners.
UniProt P31652, whole entry: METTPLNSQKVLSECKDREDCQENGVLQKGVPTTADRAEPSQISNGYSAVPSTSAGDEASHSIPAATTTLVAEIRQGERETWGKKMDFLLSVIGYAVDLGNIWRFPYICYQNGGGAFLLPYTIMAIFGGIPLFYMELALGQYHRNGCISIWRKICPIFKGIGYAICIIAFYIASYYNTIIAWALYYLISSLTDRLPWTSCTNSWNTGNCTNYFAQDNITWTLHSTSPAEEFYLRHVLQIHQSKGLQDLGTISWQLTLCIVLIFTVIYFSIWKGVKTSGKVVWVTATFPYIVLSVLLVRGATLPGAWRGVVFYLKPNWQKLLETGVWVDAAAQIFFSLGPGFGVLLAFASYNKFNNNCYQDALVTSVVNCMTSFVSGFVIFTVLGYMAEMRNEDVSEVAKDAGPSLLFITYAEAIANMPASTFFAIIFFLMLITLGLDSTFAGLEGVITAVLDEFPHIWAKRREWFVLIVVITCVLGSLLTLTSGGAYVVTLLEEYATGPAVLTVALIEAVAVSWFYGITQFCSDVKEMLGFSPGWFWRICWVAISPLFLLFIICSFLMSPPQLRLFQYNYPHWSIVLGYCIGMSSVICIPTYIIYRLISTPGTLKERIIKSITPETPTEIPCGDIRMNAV

Molecular target: Sodium-dependent serotonin transporter (Rattus norvegicus, UniProt P31652)
Assay: Inhibition of [3H]paroxetine binding to Serotonin transporter

| Compound | IC50 [nM] |
| --- | --- |
| COC(=O)[C@@H]1C2CC[C@H](C[C@@H]1c1ccccc1)N2C | 2000 |
| COC(=O)[C@H]1[C@@H](OC(=O)c2ccccc2)C[C@@H]2CC[C@H]1N2C [COCAINE] | 1060 |
